{
  "source": "ChEMBL document CHEMBL1140788",
  "about": "“Development of CXCR3 antagonists. Part 3: Tropenyl and homotropenyl-piperidine urea derivatives” (Bioorg Med Chem Lett, 2008)",
  "key": {"[1]": {"assay": "Selectivity for human CXCR3 over muscarinic M1 receptor"}, "[2]": {"assay": "Selectivity for human CXCR3 over muscarinic M2 receptor"}, "[3]": {"assay": "Selectivity for human CXCR3 over muscarinic M3 receptor"}, "[4]": {"assay": "Selectivity for human CXCR3 over 5HT1A receptor"}, "[5]": {"assay": "Selectivity for human CXCR3 over sodium channel"}, "[6]": {"assay": "Selectivity for human CXCR3 over 5HT5A receptor"}},
  "data": [
    {"smiles": "CC(=O)N1C2C=C(CN3C4CCC3CC(NC(=O)Nc3cc(F)cc(C(F)(F)F)c3)C4)CC1CCC2", "note": "(stereo unspecified)", "values": [
      {"measurement": "Ratio Ki", "setting": "[1]", "result": 33},
      {"measurement": "Ratio Ki", "setting": "[2]", "result": 40},
      {"measurement": "Ratio Ki", "setting": "[3]", "result": 170},
      {"measurement": "Ratio Ki", "setting": "[4]", "result": 40},
      {"measurement": "Ratio Ki", "setting": "[5]", "result": 81},
      {"measurement": "Ratio Ki", "setting": "[6]", "result": 430}
    ]}
  ]
}
